Laboratory results published in US5389638A, “Tetrahydroisoquinolines as alpha-2 antagonists and biogenic amine uptake inhibitors” (Abbott Laboratories, priority 1993, dated 1995).

Test system: serotonin (5-HT) uptake
Assay: inhibition of [3H]-amine uptake by synaptosome preparations, cortex (serotonin)
Type: biochemical, rat (male Sprague-Dawley)
Settings: cortex synaptosomes, [3H]-amine approx. 100 nM, 4 min, 37° C.; read-out: Biogenic amine uptake IC50 5-HT
From the text: The primary method of evaluation of biogenic amine uptake activity has been the in vitro determination of the inhibition of radioactive amine uptake by synaptosome preparations of brain tissue. Basic procedures used are those described by Snyder and Coyle (Snyder, S. H. and J. T. Coyle, Regional Differences in ^3 H-Norepinephrine and ^3 H-Dopamine Uptake into Rat Brain Homogenates, Journal of Pharmacology and Experimental Therapeutics 1969, 165: 78-86) and Wong et al. (Wong, D. T., J-S. Horng and R. W. Fuller, Kinetics of Norepinephrine Accumulation into Synaptosomes of Rat Brain-Effects of Amphetamine and Chloroamphetamines, Biochemical Pharmacology 1973, 22:311-322). […] Data were analyzed as described previously (J. F. DeBemardis, D. J. Kerkman, D. L. Arendsen, S. A. Buckner, J. J. Kyncl, and A. A. Hancock, Conformationally Defined Adrenergic Agents. 5. Resolution, Absolute Configuration, and Pharmacological Characterization of the Enantiomers of 2-[5,6-Dihyroxy-1,2,3,4-tetrahydro-1-1-naphthyl]imidazoline: A Potent Agonist at a-Adrenoceptors, Journal of Medicinal Chemistry 1987, 30: 1011-1017).

With `COC(=O)[C@H]1[C@H]2C[C@H]3c4[nH]c5ccccc5c4CCN3C[C@H]2CC[C@@H]1O` [Rauw*, Rauwolscine, reference compound] the IC50 was > 100 nM.
